PubChem BioAssay AID1046 (PCMD, 2008)
This is a selection; strong and weak results do not stand in their true shares. Active and inactive are the calls of the source.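 Rule for the calls: active = inhibition at or above 40%; inactive = inhibition below 40%.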

target: Prothrombin (Homo sapiens) (UniProt P00734); assay: human alpha-thrombin inhibitors, primary screen, counter-screen for coagulation protease inhibitor project, biochemical, 1536-well, fluorogenic AMC substrate (AID 1046); details: Boc-VPR-AMC fluorogenic substrate cleavage, at 5 µM, hits give high values;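 note: 0% = enzyme with no compound and 100% = wells without enzyme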

Row | SMILES | inhibition
1 | CCOc1ccc(C)cc1CN(CCCl)CCCl | inactive: -1.06%
2 | COc1ccc(NC2CCN(CCc3ccccc3)CC2)c(OC)c1 | inactive: -4.16%
3 | Cc1ccc(OCC(C)C)c(CN(CCCl)CCCl)c1 | inactive: 1.71%
4 | COc1ccc(C(=O)NCC2(N3CCCCC3)CCCCC2)c(OC)c1OC | inactive: -2.21%
5 | O=C(NCC1(N2CCOCC2)CCCCC1)c1cc2ccccc2o1 | inactive: -2.26%
6 | O=C(OC1CN2CCC1CC2)C1c2ccccc2Oc2ccccc21 (stereo not drawn) | inactive: -0.51%
7 | N#CC1(Nc2ccccc2)CCN(Cc2ccccc2)CC1 | inactive: 4.72%
8 | CCOC(=O)N1CCC(Nc2ccc(OC)cc2)CC1 | inactive: -3.41%
9 | CN(C)c1cccc(C(=O)NCC2(N3CCCCC3)CCCCC2)c1 | inactive: -8.36%
10 | COc1ccc(CN(CCCl)CCCl)cc1Cl | inactive: -2.64%
11 | N#CC1(Nc2ccccc2)CCN(CCc2ccccc2)CC1 | inactive: 3.62%
12 | O=C(NCC1(N2CCCCC2)CCCCC1)c1cccc([N+](=O)[O-])c1 | inactive: 3.87%
13 | O=C(NCC1(N2CCOCC2)CCCCC1)c1cc(=O)[nH]c2ccccc12 | inactive: -5.84%
14 | COc1ccc(NC2CCN(C(=O)OC(C)(C)C)CC2)cc1 | inactive: -9.8%
15 | CN1CCN(CCOC(=O)C(O)(c2ccccc2)c2ccccc2)CC1 | inactive: 3.8%
16 | N#Cc1ccc(C(=O)NCC2(N3CCCCC3)CCCCC2)cc1 | inactive: -4.28%
17 | c1ccc(CN2CCC(Nc3ccccc3)CC2)cc1 | inactive: -2.64%
18 | COc1ccc(C(=O)NCC2(N3CCOCC3)CCCCC2)cc1OC | inactive: -3.15%
19 | N/C(=N\O)c1c(N)no[n+]1[O-] | inactive: -5.32%
20 | O=C(OC1CN2CCC1CC2)C1c2ccccc2C=Cc2ccccc21 (stereo not drawn) | inactive: -4.52%
21 | CCOc1ncccc1C(=O)NCC1(N2CCOCC2)CCCCC1 | inactive: -3.04%
22 | CC(C)(C)OC(=O)N1CCC(Nc2ccccc2)CC1 | inactive: -14.5%
23 | COc1cc(OC)cc(C(=O)NCC2(N3CCOCC3)CCCCC2)c1 | inactive: -12.3%
24 | CCC(CO)(C(=O)OC1CN2CCC1CC2)c1ccccc1 (stereo not drawn) | inactive: 3.8%
25 | CCCOc1ccc(C)cc1CN(CCCl)CCCl | inactive: -4.85%
26 | Fc1ccccc1NC1CCN(Cc2ccccc2)CC1 | inactive: -2.57%
27 | CCN1CCC(Nc2cccc(F)c2)CC1 | inactive: 0.39%
28 | CN(C)c1ccc(C(=O)NCC2(N3CCCCC3)CCCCC2)cc1 | inactive: -12%
